Measured values reported in patent publication US20260382588A1, “COMPOUNDS CONTAINING A HYDROXYPHENYL MOIETY AND THEIR USE” (published 2026).
pIC50, pKd: −log10 of the molar value.

By UniProt entry, the sequences of proteins in these tests, tags left out. Residues count along the entry.
UniProt O75460, 465-977 limits assumed: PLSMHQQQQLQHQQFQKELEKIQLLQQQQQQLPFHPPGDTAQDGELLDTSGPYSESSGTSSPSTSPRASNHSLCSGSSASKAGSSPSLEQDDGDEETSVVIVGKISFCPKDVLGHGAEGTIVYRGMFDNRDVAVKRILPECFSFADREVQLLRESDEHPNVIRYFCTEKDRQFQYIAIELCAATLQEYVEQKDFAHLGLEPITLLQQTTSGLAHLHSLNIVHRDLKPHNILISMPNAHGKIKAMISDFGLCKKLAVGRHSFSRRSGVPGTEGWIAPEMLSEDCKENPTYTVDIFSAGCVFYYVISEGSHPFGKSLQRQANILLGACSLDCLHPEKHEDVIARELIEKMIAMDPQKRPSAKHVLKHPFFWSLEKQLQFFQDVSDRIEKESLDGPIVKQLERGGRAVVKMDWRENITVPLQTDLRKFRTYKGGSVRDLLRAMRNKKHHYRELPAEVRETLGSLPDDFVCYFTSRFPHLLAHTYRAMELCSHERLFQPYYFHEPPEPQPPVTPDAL
UniProt O75460, 19-977 limits assumed: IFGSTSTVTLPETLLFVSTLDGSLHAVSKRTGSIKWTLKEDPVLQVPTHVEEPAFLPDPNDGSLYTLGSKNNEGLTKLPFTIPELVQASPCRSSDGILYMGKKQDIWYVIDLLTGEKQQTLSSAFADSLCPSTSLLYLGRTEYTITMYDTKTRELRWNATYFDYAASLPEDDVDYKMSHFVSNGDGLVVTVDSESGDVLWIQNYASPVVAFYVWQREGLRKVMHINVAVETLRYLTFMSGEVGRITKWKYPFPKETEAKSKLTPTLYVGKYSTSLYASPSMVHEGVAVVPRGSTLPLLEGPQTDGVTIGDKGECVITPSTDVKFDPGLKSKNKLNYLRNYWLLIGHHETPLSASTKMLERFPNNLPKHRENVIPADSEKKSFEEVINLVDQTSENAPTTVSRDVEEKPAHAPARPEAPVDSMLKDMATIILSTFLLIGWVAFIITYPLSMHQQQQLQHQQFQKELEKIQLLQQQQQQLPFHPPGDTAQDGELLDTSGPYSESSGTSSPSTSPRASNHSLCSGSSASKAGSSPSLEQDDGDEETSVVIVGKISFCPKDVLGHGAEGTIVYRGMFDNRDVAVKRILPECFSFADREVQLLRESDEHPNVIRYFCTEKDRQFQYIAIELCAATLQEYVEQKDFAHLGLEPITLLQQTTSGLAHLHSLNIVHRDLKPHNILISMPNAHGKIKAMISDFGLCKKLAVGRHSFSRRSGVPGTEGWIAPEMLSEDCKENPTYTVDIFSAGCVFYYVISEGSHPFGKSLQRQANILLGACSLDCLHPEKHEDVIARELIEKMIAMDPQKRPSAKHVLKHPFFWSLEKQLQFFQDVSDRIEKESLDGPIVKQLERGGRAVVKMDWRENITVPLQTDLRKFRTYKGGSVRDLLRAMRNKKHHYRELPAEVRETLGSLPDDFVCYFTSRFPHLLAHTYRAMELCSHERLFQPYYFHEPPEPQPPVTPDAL

Legend:
IRE1 [1] = target: T1, IRE1 (Homo sapiens, UniProt O75460); assay: IRE1-mediated in vitro RNase assay (FRET-quenched mini Xbp1 RNA probe); conditions: read-out: IC50 (RNase); Table 5
From the text: (§1) Materials—IRE1 wild-type recombinant protein encoding the cytoplasmic domain (amino acids 465-977) with N-terminal polyhistidine-tag and GST tag was from Sinobiological (Sino Biological Europe GmbH, Eschborn, Germany, #11905-H20B). The fluorescent probe used for the in vitro IRE1 RNase assay was from Eurogentec. Tunicamycin was purchased from Calbiochem (Merck KGaA, Darmstadt, Germany). All the inhibitors were synthesized by and purchased from Enamine (Riga, Latvia).
IRE1-mediated in vitro RNase assay—Organic molecules (Compounds 28 (Z4P), and 33 (Z4), 34 (Z4A), 35 (Z4B), 36 (Z4C), 37 (Z4D) and 38 (Z4E)) were diluted in minimal volume of DMSO and subsequently re-diluted in reaction buffer (20 mM HEPES pH 7.5; 1 mM MgOAc; 50 mM KOAc). Maximum volume of DMSO per reaction never exceeded 1%. Reaction volume was 25 μL. Recombinant IRE1 (0.6 μg/reaction) was incubated at room temperature for 10 minutes with varying concentrations (0-100 μM) of inhibitor and reaction buffer. The assay relied on the use of fluorescence resonance energy transfer (FRET)—quenched mini Xbp1 RNA substrate probe, which when cleaved by IRE1 emits fluorescence at 590 nm (cy3) wavelength (F. Prischi et al., Nature Communications, 2014, 5, 3554). Subsequently equal volume of mixture of reaction buffer, 20 mM ATP, 2 mM DTT and 1 μg of fluorescent probe were added to each sample and fluorescence was read in 96 well plates flat bottom, black polystyrene, matrix active group High Bind (Corning®) every minute for 25 minutes, at 37 °C, using a Tecan 200 plate reader.

IRE1 [2] = target: T1, IRE1; assay: Luciferase assay in cells; conditions: read-out: IC50 (Luciferase); Table 5
Procedure: Luciferase assays—Cells were seeded in 96-well plate. Cells were treated with increasing concentration of Z4 and analogues. Medium was discarded and the plate was tapped to remove residual medium. 100 μL of lysis buffer (25 mM Tricine pH 7.8; 15 mM Potassium Phosphate pH 7.8; 15 mM MgSO4; 4 mM EGTA; 1% Triton X-100; 1 mM DTT) were added per well and incubated for 20 minutes at RT. 50 μL were transferred to a white 96-well plate and 50 μL of substrate buffer (25 mM Tricine pH 7.8; 15 mM Potassium Phosphate pH 7.8; 15 mM MgSO4; 4 mM EGTA; 1% Triton X-100; 1 mM DTT; 1 mM ATP; 0.2 mM luciferin) were added in each well and the luminescence was read.
IRE1—Mediated In Vitro RNase Assay and Luciferase Assay

[3] = tested on: U87-luc orthotopic GB tumors; assay: Orthotopic U87-luc GB mouse model: tumor growth, survival and relapse; conditions: TMZ alone 10 mg/kg, over 200 days (FIG. 5D)
From the text: Tumor cell orthotopic implantation—Tumor cells (U87-Luc (A. Jabouille, et al., Oncotarget, 2015, 6, 24922-24934)) were implanted into the brain of immunodeficient NMRI-Foxnlnu/Foxn1nu, 8 weeks old male mice (Janvier Laboratories, Laval, France). All animal procedures met the European Community Directive guidelines (Agreement B35-238-40 Biosit Rennes, France/No DIR 13480) and were approved by the local (University of Rennes) ethics committee and ensuring the breeding and the daily monitoring of the animals in the best conditions of wellbeing according to the law and the rule of 3R (Reduce-Refine-Replace). U87-Luc cells were implanted in the mouse brain by intracerebral injection followed by tumor growth monitoring using bioluminescence (PhotonIMAGER™ systems, BIOSPACE LAB). The mice were anesthetized intraperitoneally (i.p. mix Xylazine 10 mg/kg and Ketamin 60 mg/kg) and then fixed on a stereotactic frame. This framework makes it possible to manipulate the brains of living animals, and to reach isolated areas of the brain precisely relative to markings visible to the naked eye through the use of three-dimensional coordinates. After incising the scalp, the stereotaxic coordinates were calculated for injection of tumor cells into a specific point of the brain, and reproducible for all the mice used. In the study, the tumor cells (5×10^4 cells per mice in 1 μL) were injected at Bregma 0, 2.2 mm to the left of the bregma and 3.2 mm deep to perform the implantation at the level of the striatum.
Mouse treatments—Four days after tumor cells implantation, compound 28 (Z4P) treatments were started consisting in treatments of 300 μg/kg/day intraperitonially. For the RNA quantification experiment, performed on tumors generated in mice, three mice per group were treated according to the methods above. Mice were sacrificed at day 34 and the brains were removed and extract the tumor. The samples were used to extract RNA for the analysis, as described below.
For the survival experiment, performed on tumors generated in mice, co-treatment with TMZ was performed one week after the beginning of compound 33 (Z4) treatment (n=7 per group for the TMZ and COMBO, n=8 per group for the control and compound 28 (Z4P)). The animals were injected with 10 mg/kg/day of TMZ delivered intraperitoneally for ten days. All the treatments were performed with 2 days of rest each week. Survival was measured as the time between implantation and sacrifice, which was performed by cervical dislocation in case of critical clinical signs or loss of weight >10%.
Bioluminescence monitoring—Mice were evaluated with in vivo bioluminescence imaging every 3 days starting from the day 4, for the first week, and weekly onward for tumor progression and followed for signs of neurologic deterioration daily. […]

IRE1 [4] = target: T1, IRE1; assay: MicroScale Thermophoresis (MST) direct binding to recombinant IRE1; conditions: for difference in KD between enantiomers: S-28 versus R-28, MST; for pKd: recombinant IRE1, MST, one-site saturation binding, data not shown
From the text: as §1
MicroScale Thermophoresis13 The direct binding of compound 33 (Z4) and compound 28 (Z4P) to IRE1 protein was measured using MicroScale Thermophoresis (MST). IRE recombinant protein was labelled using RED-Tris-NTA fluorescent dye (RED-Tris-NTA 2nd Generation, NanoTemper, Munich, Germany; #MO-L018). For the labelling step, 100 μL of 20 nM protein solution is mixed with 100 μL of 10 nM RED-Tris-NTA dye in PBST buffer (PBS with 0.05% Tween-20) and incubated for 30 min at RT. The protein—dye mixture was centrifuged for 10 min at 4C and 15 000×g. For measurement of direct binding, the compounds were analyzed in a 16-point dilution series mixed in a 1:1 ratio with the labelled protein in PBST buffer. The assay was performed in standard Monolith NT.115
Capillaries (NanoTemper; #MO-K022), and all measurements were performed at 60% MST power and 60% excitation power using the Monolith NT. 115 Pico machine (NanoTemper). The dissociation constant (Kd) was calculated by taking the average of triplicate normalized fluorescence data using NANOTEMPER analysis software (MO.Affinity Analysis v2.3). The normalized values were converted to fraction-bound data, and the resulting binding curves are plotted using GRAPHPAD PRISM software (GraphPad Software).
To monitor the interaction between IRE1 and the compounds, micro-scale thermophoresis (MST) was used with recombinant IRE1 and increasing concentrations of compound 33 (Z4) and compound 28 (Z4P) (racemic mixtures) and the pure compound 28 (Z4P) enantiomers. […] To this end, the racemic compound was synthesized and the enantiomers separated by chiral chromatography. […] Additionally, compounds 28 (Z4P), 33 (Z4), 34 (Z4A), 35 (Z4B), 36 (Z4C), 37 (Z4D) and 38 (Z4E) were tested for inhibitory activity using a fluorescence resonance energy transfer (FRET)—quenched IRE1 RNA substrate probe and yielded IC50s in the low micromolar range (FIG. 1).

| pIC50 (IRE1 [1]) | pIC50 (IRE1 [2]) | Molecule | further results |
| --- | --- | --- | --- |
| 7.17 |  | Cc1ccc(C)c(NC(=O)Nc2cn(-c3ccc(O)cc3)c3ccccc23)c1 |  |
| 5.09 | 5.72 | Cc1ccc(C)c(NC(=O)NC2CCCC(c3ccc(O)cc3)C2)c1 (stereo not shown) |  |
| 6.60 | 4.96 | Cc1ccc(C)c(NC(=O)NC2CCN(c3ccc(O)cc3)CC2)c1 |  |
| 6.49 | 4.85 | C=C(C)c1c(NC(=O)Nc2cc(C)ccc2C)c2ccccc2n1-c1ccc(O)cc1 |  |
| 6.85 | 5.93 | Cc1cc(C)cc(NC(=O)NC(C)CCc2ccc(O)cc2)c1 (stereo not shown) |  |
| 5.68 |  | CC(CCc1ccc(O)cc1)NC(=O)Nc1ccccc1C(C)(C)C (stereo not shown) |  |
| 5.72 |  | Cc1ccc(C)c(NC(=O)NC(C)C#Cc2ccc(O)cc2)c1 (stereo not shown) |  |
| 6.80 |  | Cc1ccc(C)c(NC(=O)NC(C)C#Cc2cccc(O)c2)c1 (stereo not shown) |  |
|  | 6.03 | Cc1ccc(C)c(NC(=O)Nc2ccn(-c3ccc(O)cc3)c2)c1 |  |
| 5.81 |  | Cc1ccc(C)c(NC(=O)NCCc2ccc(O)cc2)c1 |  |
| 5.59 |  | CCc1ccccc1NC(=O)NC(C)CCc1ccc(O)cc1 (stereo not shown) |  |
| 5.29 |  | Cc1ccc(C)c(NC(=O)NCC#Cc2cccc(O)c2)c1 |  |
| 6.43 |  | Cc1ccc(C)c(NC(=O)OC(C)CCc2ccc(O)cc2)c1 (stereo not shown) |  |
| 5.73 |  | Cc1ccc(C)c(NC(=O)NCCCc2ccc(O)cc2)c1 |  |
| 5.92 | 6.06 | Cc1ccc(C)c(OC(=O)NC(C)CCc2ccc(O)cc2)c1 (stereo not shown) |  |
|  |  | Cn1nnc2c(C(N)=O)ncn2c1=O | tumor relapse, TMZ alone [3]: relapsed |
| 5.94 | 5.32 | CC(CCc1ccc(O)cc1)NC(=O)Nc1cccc(C2CC2)c1 (stereo not shown) |  |
| 6.77 |  | Cc1ccc(C)c(NC(=O)N[C@@H](C)CCc2ccc(O)cc2)c1 (single isomer, unassigned) | difference in KD between enantiomers (IRE1 [4]): 2 fold; pKd (IRE1 [4]): 4.22 |
| 6.02 | 4.60 | Cc1ccc(C)c(NC(=O)NC2CCCN(c3ccc(O)cc3)C2)c1 (stereo not shown) |  |
| 5.80 | 5.77 | 1-(2,5-dimethylphenyl)-3-(6-(3- hydroxyphenyl)pyridin-3-yl)urea |  |

| pIC50 (IRE1 [1]) | pIC50 (IRE1 [2]) | Molecule | further results |
| --- | --- | --- | --- |
| 4.89 |  | Cc1ccc(C)c(NC(=O)NC2CCC(c3ccc(O)cc3)CC2)c1 (stereo not shown) |  |
| 6.52 | 5.49 | CC(CCc1ccc(O)cc1)NC(=O)Nc1ccc2c(c1)OCO2 (stereo not shown) |  |
| 6.10 |  | Cc1ccc(C)c(NC(=O)NCC#Cc2ccc(O)cc2)c1 |  |
| 5.66 | 5.17 | Cc1ccc(C)c(CNC(=O)NCCc2ccc(O)cc2)c1 |  |
| 6.47 | 5.11 | Cc1ccc(C)c(NC(=O)NC(C)(C)C#Cc2cccc(O)c2)c1 |  |
| 5.94 | 5.72 | Cc1ccc(C)c(NC(=O)Nc2cccc(-c3ccc(O)cc3)n2)c1 |  |
| 6.24 | 6.23 | Cc1ccc(C)c(CC(=O)NC(C)CCc2ccc(O)cc2)c1 (stereo not shown) |  |
| 5.94 | 5.09 | Cc1ccc(NC(=O)NC(C)CCc2ccc(O)cc2)cc1 (stereo not shown) |  |
| 6.70 |  | Cc1ccc(C)c(NC(=O)N[C@H](C)CCc2ccc(O)cc2)c1 (single isomer, unassigned) | difference in KD between enantiomers (IRE1 [4]): 2 fold; pKd (IRE1 [4]): 4.54 |
| 6.09 | 4.78 | CC(CCc1ccc(O)cc1)NC(=O)Nc1ccccc1 (stereo not shown) |  |
| 6.08 |  | Cc1ccc(C)c(CNC(=O)NCc2ccc(O)cc2)c1 |  |
| 6.57 | 5.98 | Cc1ccc(C)c(NC(=O)Nc2ccc(-c3cccc(O)c3)cc2)c1 |  |
| 5.92 |  | Cc1ccc(C)c(NC(=O)NC(C)(C)CCc2ccc(O)cc2)c1 |  |
| 5.40 |  | CC(CCc1ccc(O)cc1)NC(=O)Nc1ccc2ncsc2c1 (stereo not shown) |  |
| 6.24 | 6.77 | CC(CCc1ccc(O)cc1)NC(=O)Nc1cccc(C(C)C)c1 (stereo not shown) |  |
| 5.66 |  | Cc1ccc(C)c(NC(=O)Nc2ccc(-c3ccc(O)cc3)cc2)c1 |  |
| 6.43 | 5.46 | Cc1ccc(C)c(NC(=S)NC(C)CCc2ccc(O)cc2)c1 (stereo not shown) |  |
| 6.35 | 4.89 | Cc1cccc(NC(=O)NC(C)CCc2ccc(O)cc2)c1 (stereo not shown) |  |
| 5.82 | 4.38 | Cc1ccc(C)c(NC(=O)N(C)C(C)CCc2ccc(O)cc2)c1 (stereo not shown) |  |
| 6.06 |  | Cc1ccc(C)c(NC(=O)N2CCN(c3cccc(O)c3)CC2)c1 |  |
